# PABP FP inh – PABP-poly(A) binding inhibition | P11940 | PABP-poly(A) RNA binding, fluorescence polarization | calls only at 35 µM | 1% of 290,000 active | AID 2014;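 further: calls also rest on retests at 20 µM and on dose response follow-up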
# Yeast UUG start – yeast start codon fidelity modulation; AID 602363; activity score, % at 18.7 µM; S. cerevisiae UUG-firefly luciferase reporter, luminescence/redox ratio; 0.13% of 350,000 active;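 active means replicate mean at a twofold rise or more, about +100% in these data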;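 further: firefly luciferase made from a UUG start codon reports start codon fidelity; reporter light over untreated wells divided by growth signal over untreated wells; some hits fall short of that in this replicate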
# DSG3 Ab inh – blocks pemphigus antibody binding to human desmoglein-3 | P32926 | DSG3-coupled beads, scFv-anti-DSG3-GFP binding, flow cytometry; hits give low values | binding (percent of control), % at 10 µM | 0.48% of 310,000 active;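 active means binding more than 3 SD below its plate's average and above zero; inconclusive means below that plate limit but binding exactly zero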;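 further: hits lower antibody fragment binding to DSG3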
# eIF4H inh – inhibitors of RNA binding by human eIF4H | eIF4H fluorescence polarization binding assay | inhibition, % at 35 µM | AID 2012 | Q15056 | 0.94% of 290,000 active;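 further: calls also rest on retests at 20 µM and on dose response follow-up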
# PABP1 MLLE inh – blocks PAM2 peptide binding to the PABP1 MLLE domain. P11940. GST-MLLE / FITC-PAM2 fluorescence polarization. inhibition, % at 20 µM. 0.36% of 360,000 active; in the data active means inhibition above about 35%, passing the limit was not always enough;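 further: plate controls were DMSO wells with GST-MLLE for no effect and wells lacking GST-MLLE protein for full effect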
# An asterisk follows results filed as active; i = inactive; ? = inconclusive; · = not tested or not shown; + = active, no number. An excerpt weighted towards active compounds, which were near 1.5% of everything screened. Unless noted, how the calls were made is not given here.
entry	canonical_smiles	PABP FP inh	Yeast UUG start	DSG3 Ab inh
1	Cc1cccc(C)c1NC(=O)CN1C(=O)S/C(=C\c2cccn2-c2cccc(C(=O)O)c2)C1=O	+	-12.4	103.2
2	COc1ccc(NC(=O)CN2C(=O)S/C(=C/c3cccn3-c3ccc(C(=O)O)cc3)C2=O)cc1	+	-11.6	·
3	Cc1ccc(NC(=O)CN2C(=O)S/C(=C\c3cccn3-c3cccc(C(=O)O)c3)C2=O)cc1C	+	·	99.3
4	Cc1cccc(NC(=O)CN2C(=O)S/C(=C\c3cccn3-c3cccc(C(=O)O)c3)C2=O)c1	i	-16.6	93.8
5	Cc1ccccc1NC(=O)CN1C(=O)S/C(=C\c2cccn2-c2cccc(C(=O)O)c2)C1=O	+	-14.9	107.5
6	Cc1cccc(C)c1NC(=O)CN1C(=O)S/C(=C\c2cccn2C)C1=O	i	-17.3	88.2
7	COc1ccc(C(=O)NCc2ccc3c(c2)cc(C)n3C)cc1OC	i	-6.4	108.5
8	COc1cccc(C(=O)NCc2ccc3c(c2)cc(C)n3C)c1	i	·	82.2*

entry	eIF4H inh	PABP1 MLLE inh
1	80.1*	-3.0
2	87.0*	4.7
3	70.3	-4.3
4	70.8	-0.6
5	80.6*	6.1
6	-12.1	3.2
7	24.8	27.9
8	100.9	74.7

# New compounds follow
entry	canonical_smiles	PABP FP inh	Yeast UUG start	DSG3 Ab inh
9	Cc1cc2cc(CNC(=O)c3cccs3)ccc2n1C	i	9.0	99.3
10	Cc1cc2cc(CNS(=O)(=O)c3ccccc3)ccc2n1C	i	-10.5	86.1
11	CCOC(=O)NCc1ccc2c(c1)cc(C)n2C	i	-5.6	93.0
12	COc1ccc(S(=O)(=O)NCc2ccc3c(c2)cc(C)n3C)cc1	+	-13.4	96.2
13	CCNC(=O)C[C@@H]1CC[C@@H]2[C@H](COC[C@H](O)CN2C(=O)Nc2c(C)noc2C)O1	·	-2.3	·
14	CCc1noc(C)c1C(=O)N1CCN(S(=O)(=O)c2ccccc2C(F)(F)F)CC1	·	-4.1	·
15	C=CCn1c2ccccc2c2nnc(SCC(N)=O)nc21	i	3.3	114.1
16	C=CCSc1nnc2nc3c(nn12)c1cc(C)ccc1n3CC=C	i	11.7	-30.0*

entry	eIF4H inh	PABP1 MLLE inh
9	8.2	45.2*
10	17.8	37.3
11	20.5	17.6
12	64.2*	48.6*
13	·	·
14	·	88.3*
15	3.6	1.5
16	-11.8	-66.3

# PABP1 MLLE inh, entries above that show a hit
entry	canonical_smiles	PABP FP inh	Yeast UUG start	DSG3 Ab inh
9	Cc1cc2cc(CNC(=O)c3cccs3)ccc2n1C	i	9.0	99.3
12	COc1ccc(S(=O)(=O)NCc2ccc3c(c2)cc(C)n3C)cc1	+	-13.4	96.2
14	CCc1noc(C)c1C(=O)N1CCN(S(=O)(=O)c2ccccc2C(F)(F)F)CC1	·	-4.1	·

entry	eIF4H inh	PABP1 MLLE inh
9	8.2	45.2*
12	64.2*	48.6*
14	·	88.3*

# Additional results follow.
entry	canonical_smiles	PABP FP inh	Yeast UUG start	DSG3 Ab inh
17	CC(C)C1(C2CCCC2)NC(=O)NC1=O (configuration not stated)	·	-20.9	93.7
18	CC(C)C1=C2CCCCC2NC(=O)N1 (configuration not stated)	i	-19.4	95.7
19	CCCC(=O)Nc1ccc2c(c1)OC[C@@H](C)N(Cc1cccc(F)c1)C[C@H](C)[C@@H](OC)CN(C)C2=O	·	5.8	·
20	C=CCn1c(COc2ccc(CC)cc2)nnc1SC/C(O)=C(\C#N)c1nc2ccccc2[nH]1	+	-5.6	101.0
21	C[C@H](NC(=O)C[C@H]1C=C[C@H](NC(=O)C2CCC2)[C@@H](CO)O1)c1ccccc1	·	-10.3	·
22	O=C(O)Cc1csc(-c2ccc(F)cc2)n1	i	-14.1	120.8
23	O=C(O)Cc1csc(-c2ccccc2)n1	i	·	101.2
24	COc1cccc(/C=C(/C#N)c2ccc(F)cc2)c1OCc1cccc(C(=O)O)c1	i	-5.1	102.5

entry	eIF4H inh	PABP1 MLLE inh
17	·	9.5
18	0.4	61.6*
19	·	·
20	66.0*	-91.2
21	·	·
22	-6.4	-5.0
23	7.1*	3.4
24	18.5	-1.1

# Further entries.
entry	canonical_smiles	PABP FP inh	Yeast UUG start	DSG3 Ab inh
25	N#C/C(=C/c1ccccc1OCc1ccc(F)cc1)c1ccc(C(=O)O)cc1	+	-14.9	85.3
26	Cc1ccc2cc(C3CC(c4ccco4)=NN3C(=O)CCC(=O)O)c(Cl)nc2c1 (configuration not stated)	+	·	101.4
27	O=C(C[C@H]1C=C[C@@H](NC(=O)CN2CCOCC2)[C@@H](CO)O1)NCCc1ccccc1	·	-11.7	·
28	C[C@H]1CN([C@@H](C)CO)C(=O)c2cc(NC(=O)NC3CCCCC3)ccc2O[C@H]1CN(C)Cc1ccccc1	·	14.5	·
29	O=C(Oc1c(CN2CCOCC2)cc(Cl)c2cccnc12)c1ccccc1	i	·	103.0
30	O=C(Oc1c(CN2CCOCC2)cc(Cl)c2cccnc12)c1ccccc1F	+	·	97.2
31	O=C(C(NS(=O)(=O)c1cccs1)c1ccccc1)N1CCN(c2ccccc2)CC1 (configuration not stated)	+	6.3	114.8
32	CN(C)CCCn1c2c3ccccc3ccc2c2oc(=O)c3ccccc3c21	·	·	69.7*
33	O=C(COc1ccccc1)Nc1cc(Cl)ccc1Cl	i	-22.5	80.2*
34	C[C@H]1CN([C@@H](C)CO)C(=O)c2cccc(NS(C)(=O)=O)c2O[C@@H]1CN(C)C	·	-3.9	·

entry	eIF4H inh	PABP1 MLLE inh
25	16.6	-88.5
26	?	11.9
27	·	·
28	·	·
29	0.6	-12.1
30	?	14.6
31	64.3*	16.9
32	·	126.7
33	-6.8	0.6
34	·	·
